Assay results taken from patent US6329000A, “Extract of pine needle and the use thereof” (priority 1999, dated 2001).

Tested on: coronary heart disease
Experiment: Clinical test in coronary heart disease: ECG, angina pectoris, arrhythmia
Assay type: in vivo, human

O=[N+]([O-])O[C@H]1CO[C@H]2[C@@H]1OC[C@H]2O[N+](=O)[O-]
ECG remarkable effectiveness case number (abnormal ECG 38 (extract) / 21 (control)): 2 case number
ECG improvement case % (abnormal ECG 38 / 21): 14.3%
ECG improvement case number (abnormal ECG 38 / 21): 3 case number
ECG remarkable effectiveness case % (abnormal ECG 38 / 21): 9.5%
ECG total effective case number (abnormal ECG 38 / 21): 5 case number
ECG total effective rate % (abnormal ECG 38 / 21): 23.8%
total incidences of angina pectoris after treatment (before: 395 (extract), 215 (control) times a week): 108 times a week
total effective rate on angina pectoris (extract 15 ml (1.6 g) t.i.d. / control isosorbide dinitrate t.i.d.): 86.6%
